pKi: −log10 of the molar value. This is a selection: effects in other tests are not listed, and their absence says nothing.
How the values were obtained:
KOR [1] = molecular target: T1, KOR (Homo sapiens, UniProt P41145); assay: [35S]GTP-γ-S binding assay, agonist mode, hKOR; conditions: for activity at KOR in words: [35S]GTPγS, KOR agonist and antagonist modes
DOR = DOR (Homo sapiens, UniProt P41143); assay: Radioligand competition binding at DOR ([3H]DPDPE); conditions: read-out: Ki DOR, Table 6, Kd=0.50 nM, membranes of transfected HNB9.10 cells
MOR = MOR (Rattus norvegicus, UniProt P33535); assay: Radioligand competition binding at MOR ([3H]DAMGO); conditions: read-out: Ki MOR, Table 6, Kd=0.85 nM, membranes of transfected HNB9.10 cells
KOR [2] = molecular target: T1, KOR; assay: [35S]GTP-γ-S binding assay, antagonist mode, hKOR; conditions: Table 6; % relative to 10 μM naloxone inhibition of 100 nM U50,488
KOR [3] = molecular target: T1, KOR; assay: Radioligand competition binding at KOR ([3H]U69,593), Table 6; conditions: read-out: Ki KOR, [3H]U69,593, Kd=5.3 nM, membranes of transfected HNB9.10 cells
KOR [4] = molecular target: T1, KOR; assay: Radioligand binding at KOR ([3H]Nor-BNI), Table 3; conditions: read-out: Ki KOR [3H]Nor-BNI

Chains of the proteins cited; added tags and fusions are not shown.
UniProt P41143, whole entry: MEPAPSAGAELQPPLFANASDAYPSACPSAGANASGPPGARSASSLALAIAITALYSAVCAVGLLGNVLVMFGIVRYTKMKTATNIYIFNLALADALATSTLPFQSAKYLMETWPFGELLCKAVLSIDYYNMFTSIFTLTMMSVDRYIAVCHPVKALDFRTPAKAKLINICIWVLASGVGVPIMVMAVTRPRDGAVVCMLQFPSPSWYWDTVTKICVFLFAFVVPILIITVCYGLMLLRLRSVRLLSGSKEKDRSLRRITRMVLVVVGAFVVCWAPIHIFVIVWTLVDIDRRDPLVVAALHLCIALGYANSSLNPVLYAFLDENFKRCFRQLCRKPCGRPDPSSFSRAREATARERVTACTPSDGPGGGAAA
UniProt P33535, whole entry: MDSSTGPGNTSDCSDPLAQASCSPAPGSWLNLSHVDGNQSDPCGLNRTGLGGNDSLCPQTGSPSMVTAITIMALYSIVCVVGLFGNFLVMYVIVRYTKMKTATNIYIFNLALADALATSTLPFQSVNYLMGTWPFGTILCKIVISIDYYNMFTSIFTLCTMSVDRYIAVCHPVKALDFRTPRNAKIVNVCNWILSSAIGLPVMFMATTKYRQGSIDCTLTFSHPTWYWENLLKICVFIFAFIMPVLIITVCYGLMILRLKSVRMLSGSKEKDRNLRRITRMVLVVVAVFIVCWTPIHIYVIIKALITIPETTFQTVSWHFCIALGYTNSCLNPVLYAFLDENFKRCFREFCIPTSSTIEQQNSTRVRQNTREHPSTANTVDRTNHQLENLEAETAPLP

Row | Structure (SMILES) | activity at KOR in words (KOR [1]) | pKi (DOR) | pKi (MOR) | KOR [35S]GTPγS-binding Imax (KOR [2]) [%] | pKi (KOR [3]) | pKi (KOR [4]) | KOR function (KOR [1]; Table 6, summary in words from binding and agonist/antagonist modes)
1 | CCCC[C@@H](NC(=O)[C@@H](N)Cc1c(C)cc(O)cc1C)C(=O)NCC(=O)N[C@@H](Cc1ccc(Cl)cc1)C(N)=O | partial agonist/antagonist activities | 9.21 | 8.54 | 60 | 6.81 |  | 
2 | CCCC[C@@H](NC(=O)[C@@H](N)Cc1c(C)cc(O)cc1C)C(=O)NCC(=O)N[C@@H](Cc1ccc(Cl)cc1)C(=O)N1CCC(N(C(=O)CC)c2ccccc2)CC1 |  |  |  | 122 |  |  | 
3 | CCCC[C@@H](NC(=O)[C@@H](N)Cc1c(C)cc(O)cc1C)C(=O)NCC(=O)N[C@@H](Cc1ccccc1)C(N)=O | partial agonist | 9.60 | 8.96 |  | 8.47 | 8.47 | partial agonist
4 | CCCC[C@@H](NC(=O)[C@@H](N)Cc1c(C)cc(O)cc1C)C(=O)NCC(=O)N[C@@H](Cc1ccc(F)cc1)C(N)=O | partial agonist/antagonist activities | 9.00 | 8.35 |  |  |  | 

— patent US20180127465A1 (priority 2015, published 2018)
